What was measured:
[1] = system: SKBR-3 cell line; test: Cell toxicity (MTT assay), SKBR-3; format: cell-based; settings: SKBR-3, high HER2 expression; drug conjugated materials
Protocol: (§1) Different cell lines (including SKBR-3, SKOV-3, MCF-10A, HCC-1954, BT-474) were cultured in T75 cell culture flask containing RMPI or Dulbecco's Modified Eagle Medium/Nutrient Mixture F-12 (DMEM/F12) in a humidified S26 incubator with 5% CO2 at 37° C. Culture media was supplemented with 10% fetal bovine serum (FBS), 1% 1-glutamine, and 1% antibiotic-antimycotic (100 units/mL of penicillin, 100 μg/mL of streptomycin, and 0.25 μg/mL of amphotericin B).
(§2) Different cells (including SKBR-3, SKOV-3, MCF-10A, HCC-1954, BT-474) were seeded into 96-well tissue culture plates at a density of 10 000 cells/well/100 μL sample and incubated at 37° C. After 24 h, culture media was replaced and cells were treated with different concentrations of brush polymers in 100 μL media (10 μL protein containing solution with different concentrations+90 μL medium). At the desired time interval, the medium was removed and the cells were cultured by 100 μL 10% MTT (5 mg/mL) in medium solution for another 4 h. Then, the solution was discarded and the remaining crystal was dissolved by 100 μL DMSO. The solution was subjected to absorbance measurement with SpectraMax M5 at 590 nm. Cell death was measured by the MTT assay in triplicate.

[2] = system: HCC-1954 cell line; test: Cell toxicity (MTT assay), HCC-1954; format: cell-based; settings: HCC-1954, low HER2 expression; drug conjugated materials
Protocol: as §1, §2

[3] = system: BT-474 cell line; test: Cell toxicity (MTT assay), BT-474; format: cell-based; settings: free antibody as a control
Protocol: as §1, §2

[4] = Pharmacokinetics (blood circulation) of Cy5.5 labelled materials in mice; format: in vivo
Protocol: The pharmacokinetics of the ABCs, BPD and control ABCs were measured to access the circulation half-life of these materials. In order to monitor these materials in vivo, the brush polymer was labeled by a higher amount of Cy5.5 fluorescent dye. The ABC, BPD and control ABC treatment groups contained the same amount of dye according to the same amount of polymer was injected into mice. The time dependent blood samples were collected and analyzed.
More than 40% of polymers for ABC, BPD and Ctrl ABC was left inside the blood after 72 h. The dye labelled trastuzumab was also studied for the comparison of the PK.

Row | Substance | cell toxicity [1] | cell toxicity [2] | cell toxicity [3] | fluorescence of the Ab in blood after 72 h injection [4]
1 | trastuzumab | no toxicity | no toxicity | no toxicity | –
2 | dye labelled trastuzumab | – | – | – | almost no signal

Reference: patent publication US12084415B2, “Biomolecule-polymer-pharmaceutical agent conjugates for delivering the pharmaceutical agent” (Massachusetts Institute of Technology, priority 2021, dated 2024)
